Results on one molecule are retold here after US11878972B2, “Treatment of neurological disorders” (TORQUR AG, priority 2016, dated 2024).

In the assay the target is T1, N-terminally GST-tagged mTOR (truncated version: amino acids 1360-2549) (Homo sapiens, UniProt P42345).
T1 construct: truncated version: amino acids 1360-2549; purchased Life Technologies PR8683B
Nature of the assay: In vitro mTOR binding assay (LanthaScreen TR-FRET).

`Nc1cc(C(F)F)c(-c2nc(N3CCOCC3)nc(N3CCOCC3)n2)cn1` [Compound 1, 4-(difluoromethyl)-5-(4,6-dimorpholino-1,3,5-triazin-2-yl)pyridin-2-amine]: the IC50 (as a rule, the concentration that inhibits the measured activity by half) was determined as 8 nM.
